Consider 2 compounds from article PMC7018645, “Hijacking the Fusion Complex of Human Parainfluenza Virus as an Antiviral Strategy” (mBio, 2020).

Test [1] deals with HPIV3 CI-1 eGFP. Further details: method as in PMID 30782664. The settings on record: proof-of-concept compound; cited from earlier work.
Test [2] has as its system HPIV3 CI-1 eGFP. Briefly: Quantitative PCR for viral genome copy number after compound treatment. Further details: species or system human parainfluenza virus type 3. Conditions: 5 mM to 78 μM, 1 h at 37°C, quantitative reverse transcription-PCR. On the procedure: Quantitative PCR, using SYBR green fluorescent dye as a marker for amplification, was performed.
In a further test the test system is HPIV3 F protein. Briefly: Cryo-electron tomography of intact viral particles (conformation of F).

Where two headings read alike, the source gives them in different places.

In the case of `N#CCc1cc(NS(=O)(=O)c2cccs2)ccc1O` [CM9, reference compound], the “viral genome copy number after treatment” value in the test on HPIV3 CI-1 eGFP [1] is recorded as “no change in genome copy number was detected”.
For the compound `CC(=O)Nc1cc(NS(=O)(=O)c2ccc(F)cc2F)ccc1O` [PAC-3066], the “viral genome copy number after treatment” value in the test on HPIV3 CI-1 eGFP [2] is given as “no change in genome copy number was detected”. Also, in the test with HPIV3 F protein (250 μM, 37°C), the “conformation of F on viral particles” value is “clear alteration in the conformation of F to the postfusion state” and the “overall morphology of the virus” value is “no differences in the overall morphology of the virus were observed”. Also, the “conformation of F on viral particles” value with HPIV3 F protein (4°C) is “no difference between the treated and untreated virions”.
